Earlier results, collected in patent publication US20150148324A1, “FORMULATIONS FOR THE PREPARATION OF IMMEDIATE RELEASE TABLETS FOR ORAL ADMINISTRATION CONTAINING LOW-DOSE MIFEPRISTONE, TABLETS THUS OBTAINED AND THEIR PREPARATION PROCESS” (VALPHARMA INTERNATIONAL S.P.A., priority 2012, published 2015).

Biological target: T1, progesterone receptor (Homo sapiens, UniProt P06401)
T1 sequence (P06401 1-933): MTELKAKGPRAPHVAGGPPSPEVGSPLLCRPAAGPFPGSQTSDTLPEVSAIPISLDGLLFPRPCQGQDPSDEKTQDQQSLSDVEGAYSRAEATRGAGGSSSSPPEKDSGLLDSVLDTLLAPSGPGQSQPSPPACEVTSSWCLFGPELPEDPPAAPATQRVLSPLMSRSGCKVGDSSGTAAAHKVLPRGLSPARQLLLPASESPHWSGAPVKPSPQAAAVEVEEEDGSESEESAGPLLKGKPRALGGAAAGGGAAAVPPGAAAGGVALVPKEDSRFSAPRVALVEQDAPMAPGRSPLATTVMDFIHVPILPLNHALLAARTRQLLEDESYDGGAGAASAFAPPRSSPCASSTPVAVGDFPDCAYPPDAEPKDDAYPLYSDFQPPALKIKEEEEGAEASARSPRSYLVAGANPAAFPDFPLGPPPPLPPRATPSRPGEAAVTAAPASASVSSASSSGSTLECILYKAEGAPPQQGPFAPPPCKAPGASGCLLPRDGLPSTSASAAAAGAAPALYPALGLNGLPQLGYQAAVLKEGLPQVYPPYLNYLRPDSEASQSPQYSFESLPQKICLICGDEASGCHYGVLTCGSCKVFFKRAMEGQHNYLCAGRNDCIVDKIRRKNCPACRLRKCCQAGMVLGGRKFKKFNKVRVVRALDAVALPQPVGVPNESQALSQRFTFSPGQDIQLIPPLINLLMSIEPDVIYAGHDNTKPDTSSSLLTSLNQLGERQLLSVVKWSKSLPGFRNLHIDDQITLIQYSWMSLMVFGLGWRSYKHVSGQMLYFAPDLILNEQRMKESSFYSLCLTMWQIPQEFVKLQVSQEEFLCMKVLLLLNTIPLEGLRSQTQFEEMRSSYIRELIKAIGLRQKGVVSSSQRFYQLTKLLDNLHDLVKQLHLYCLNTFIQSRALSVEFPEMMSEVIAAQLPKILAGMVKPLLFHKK
Conditions: endometrial level; relative to progesterone

CC#C[C@]1(O)CC[C@H]2[C@@H]3CCC4=CC(=O)CCC4=C3[C@@H](c3ccc(N(C)C)cc3)C[C@@]21C [Mifepristone]
ability to bind with the progesterone receptor, with respect to progesterone itself: 5 times higher
